# Biological target: mature SARSCoV2 M^pro (Severe acute respiratory syndrome coronavirus 2, UniProt P0DTD1)
# Experiment: biochemical
compound,measurement,value
CCCC[C@H](NC(=O)[C@@H]1[C@@H]2[C@H](CN1C(=O)[C@@H](NC(=O)NC1(CS(=O)(=O)C(C)(C)C)CCCCC1)C(C)(C)C)C2(C)C)C(=O)C(=O)NC1CC1 [narlaprevir],IC50,> 20 µM
